Source: US20250197409A1

Sequences of proteins named here, by UniProt entry; tags and fusion partners are left off.
UniProt P10275, whole entry T878A: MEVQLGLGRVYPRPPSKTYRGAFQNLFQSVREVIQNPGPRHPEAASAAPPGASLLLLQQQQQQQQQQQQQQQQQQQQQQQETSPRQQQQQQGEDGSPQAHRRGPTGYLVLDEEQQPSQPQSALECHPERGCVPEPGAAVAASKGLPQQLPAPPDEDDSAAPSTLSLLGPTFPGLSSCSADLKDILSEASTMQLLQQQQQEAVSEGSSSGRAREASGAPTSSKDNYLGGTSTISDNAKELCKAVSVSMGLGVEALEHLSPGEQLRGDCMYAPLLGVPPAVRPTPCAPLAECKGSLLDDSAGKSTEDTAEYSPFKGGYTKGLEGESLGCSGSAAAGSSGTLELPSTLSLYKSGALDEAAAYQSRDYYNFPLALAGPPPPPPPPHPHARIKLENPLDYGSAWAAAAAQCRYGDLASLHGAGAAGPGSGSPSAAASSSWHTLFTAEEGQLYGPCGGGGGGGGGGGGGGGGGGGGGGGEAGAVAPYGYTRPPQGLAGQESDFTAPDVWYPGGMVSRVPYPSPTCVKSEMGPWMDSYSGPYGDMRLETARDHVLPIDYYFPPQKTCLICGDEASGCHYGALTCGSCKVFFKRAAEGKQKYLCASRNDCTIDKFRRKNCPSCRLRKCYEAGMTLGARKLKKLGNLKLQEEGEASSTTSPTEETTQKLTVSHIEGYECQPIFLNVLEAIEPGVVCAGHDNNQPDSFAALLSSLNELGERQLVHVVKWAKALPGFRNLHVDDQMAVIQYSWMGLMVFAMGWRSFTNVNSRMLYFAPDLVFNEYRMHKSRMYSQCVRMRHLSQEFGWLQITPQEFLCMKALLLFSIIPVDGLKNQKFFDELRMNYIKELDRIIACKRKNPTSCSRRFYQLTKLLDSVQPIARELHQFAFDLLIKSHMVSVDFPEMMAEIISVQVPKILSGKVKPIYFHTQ
UniProt Q96SW2, whole entry partner: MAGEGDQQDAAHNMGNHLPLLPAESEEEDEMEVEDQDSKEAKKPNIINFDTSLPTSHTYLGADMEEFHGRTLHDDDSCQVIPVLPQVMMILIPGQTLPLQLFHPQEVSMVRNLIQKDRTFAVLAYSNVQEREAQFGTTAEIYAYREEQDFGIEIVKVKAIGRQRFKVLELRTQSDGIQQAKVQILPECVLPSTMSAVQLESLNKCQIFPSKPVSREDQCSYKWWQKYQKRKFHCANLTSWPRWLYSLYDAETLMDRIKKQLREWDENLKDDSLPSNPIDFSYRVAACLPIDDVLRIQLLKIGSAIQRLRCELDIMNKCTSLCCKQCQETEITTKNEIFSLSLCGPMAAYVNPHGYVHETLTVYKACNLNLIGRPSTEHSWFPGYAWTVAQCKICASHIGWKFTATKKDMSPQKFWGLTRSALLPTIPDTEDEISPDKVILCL

Molecular target: androgen receptor (Homo sapiens, UniProt P10275, T878A)
Assay: Androgen receptor degradation assay using Western blot analysis
Format: cell-based
Conditions: LNCaP.FGC cells; for Androgen Receptor Remaining (%): 100 nM, 24 hr, normalized to GAPDH, untreated cells = 100%; for DC50: read-out: AR DC50 (concentration needed for 50% AR degradation), serial 10x dilutions from 100 nM

With `CCn1c2c(c3ccc(OCCCCN4CCC5(CC4)CN(c4ccc(C(=O)N[C@H]6CC[C@H](N(C)c7ccc(C#N)c(Cl)c7)CC6)nn4)C5)cc31)C(=O)N(C1CCC(=O)NC1=O)C2=O` (stereo partly drawn) the “Androgen Receptor Remaining (%)” value was 39% and the DC50 was under 10 nM.
Work on `Cn1c2c(c3ccc(OC4CCN(CC5CCN(c6ccc(C(=O)N[C@H]7CC[C@H](Oc8ccc(C#N)c(Cl)c8)CC7)nn6)C5)CC4)cc31)C(=O)N(C1CCC(=O)NC1=O)C2=O` (stereo partly drawn) yielded a DC50 of 10 to 25 nM.
`CCn1c2c(c3ccc(OCCCCOC4CCN(c5ccc(C(=O)N[C@H]6CC[C@H](N(C)c7ccc(C#N)c(Cl)c7)CC6)nn5)CC4)cc31)C(=O)N(C1CCC(=O)NC1=O)C2=O` (stereo partly drawn) gave a DC50 of 25 to 100 nM.
With `CCn1c2c(c3ccc(OCCCOC4CC5(CCN(c6ccc(C(=O)N[C@H]7CC[C@H](N(C)c8ccc(C#N)c(Cl)c8)CC7)nn6)CC5)C4)cc31)C(=O)N(C1CCC(=O)NC1=O)C2=O` (stereo partly drawn) the DC50 was 25 to 100 nM.
With `CCn1c2c(c3ccc(OCCCCN4CCN(c5ccc(C(=O)N[C@H]6CC[C@H](Oc7ccc(C#N)c(Cl)c7)CC6)nn5)[C@H](C)C4)cc31)C(=O)N(C1CCC(=O)NC1=O)C2=O` (stereo partly drawn) the “Androgen Receptor Remaining (%)” value was 40% and the DC50 was 25 to 100 nM.
`CCn1c2c(c3ccc(OCCCN4CCCN(c5ccc(C(=O)N[C@H]6CC[C@H](N(C)c7ccc(C#N)c(Cl)c7)CC6)nn5)CC4)cc31)C(=O)N(C1CCC(=O)NC1=O)C2=O` (stereo partly drawn) was tested, and the “Androgen Receptor Remaining (%)” value was 29% and the DC50 was 10 to 25 nM.
